Measured values published in US20240166626A1, “Compounds and Methods for Preventing, Treating, or Ameliorating Airway Disease” (THOMAS JEFFERSON UNIVERSITY, priority 2021, published 2024).

Tests used:
β2AR [1] = molecular target: T1, β2AR (Homo sapiens, UniProt P07550); assay: PATHHUNTER high throughput assay for β-arrestin recruitment to β2AR
β2AR [2] = molecular target: T1, β2AR; assay: GLOSENSOR cAMP production assay (bias = GloSensor IC50:PathHunter IC50); conditions: GloSensor IC50:PathHunter IC50 ratio
[3] = read-out: IC50 Arrestin, Table 3, ISO-promoted β-arrestin2 recruitment, scaffold drawing 254, R1/R3 substituents
[4] = read-out: IC50 Arrestin, Table 2, ISO-promoted β-arrestin2 recruitment, scaffold drawing 253, R1/R2 substituents

SMILES | pIC50 (β2AR [1]; [3]) | Arrestin fold bias (β2AR [2]; Table 3) | pIC50 (β2AR [1]; [4]) | Arrestin fold bias (β2AR [2]; Table 2)
Clc1cc(Cl)cc(Nc2nc(NC3CCCCCC3)c3ccccc3n2)c1 | 5.30 | >20 |  | 
Nc1nc(Nc2cc(Cl)cc(Cl)c2)nc2ccccc12 | 5.00 | No |  | 
Cc1cccc2c(NC3CCCCC3)nc(Nc3cc(Cl)cc(Cl)c3)nc12 |  |  | < 4.00 | No
OCCc1ccc(Nc2nc(Nc3cc(Cl)cc(Cl)c3)nc3ccccc23)cc1 | 4.74 | No |  | 
Cc1ccc2c(NC3CCCCC3)nc(Nc3cc(Cl)cc(Cl)c3)nc2c1 |  |  | 5.00 | >10
Cc1ccc2nc(Nc3cc(Cl)cc(Cl)c3)nc(NC3CCCCC3)c2c1 |  |  | 5.52 | >20
Clc1cc(Cl)cc(Nc2nc(NC3CCCCC3)c3cc(Cl)ccc3n2)c1 |  |  | 5.10 | >20
Clc1cc(Cl)cc(Nc2nc(NCCc3ccccc3)c3ccccc3n2)c1 | 5.15 | ~3 |  | 

Now from value to molecule:

pIC50 (β2AR [1]; [3]) | Arrestin fold bias (β2AR [2]; Table 3) | pIC50 (β2AR [1]; [4]) | Arrestin fold bias (β2AR [2]; Table 2) | SMILES
4.59 | >3 |  |  | CN(C)CCCNc1nc(Nc2cc(Cl)cc(Cl)c2)nc2ccccc12
4.89 | No |  |  | CCNc1nc(Nc2cc(Cl)cc(Cl)c2)nc2ccccc12
4.60 | No |  |  | NCCCNc1nc(Nc2cc(Cl)cc(Cl)c2)nc2ccccc12
4.64 | ~3 |  |  | CCCCCNc1nc(Nc2cc(Cl)cc(Cl)c2)nc2ccccc12

pIC50: −log10 of the molar value. Like-named read-outs stand apart in the source and are kept apart here.
